{
  "source": "PubChem BioAssay AID504882",
  "about": "(Broad Institute, 2011)",
  "test_system": "EBV lymphoblastoid cells (LCL) viability, plate reader",
  "test": "cytotoxicity in EBV lymphoblastoid cells, dose response, cytotoxicity control, cell-based, plate reader, cherry-picks, set 2 (AID 504882)",
  "note": "Results filed as inconclusive are left out.",
  "data": [
    {"smiles": "COc1cc([C@@H]2c3cc4c(cc3[C@@H](O[C@@H]3O[C@@H]5CO[C@@H](C)O[C@H]5[C@H](O)[C@H]3O)[C@H]3COC(=O)[C@H]23)OCO4)cc(OC)c1O", "values": [
      {"measurement": "AC50", "value": 531, "unit": "nM"}
    ]}
  ]
}
